What was measured:
CRF1R = biological target: T1, CRF1R (Homo sapiens, UniProt P34998); test: CRF1R agonist activation (EC50 / Emax), called comparative CRF binding; format: cell-based; details: for EC50: CRF1R EC50; for Emax: read-out: CRF1R Emax
T1 sequence (P34998 24-415): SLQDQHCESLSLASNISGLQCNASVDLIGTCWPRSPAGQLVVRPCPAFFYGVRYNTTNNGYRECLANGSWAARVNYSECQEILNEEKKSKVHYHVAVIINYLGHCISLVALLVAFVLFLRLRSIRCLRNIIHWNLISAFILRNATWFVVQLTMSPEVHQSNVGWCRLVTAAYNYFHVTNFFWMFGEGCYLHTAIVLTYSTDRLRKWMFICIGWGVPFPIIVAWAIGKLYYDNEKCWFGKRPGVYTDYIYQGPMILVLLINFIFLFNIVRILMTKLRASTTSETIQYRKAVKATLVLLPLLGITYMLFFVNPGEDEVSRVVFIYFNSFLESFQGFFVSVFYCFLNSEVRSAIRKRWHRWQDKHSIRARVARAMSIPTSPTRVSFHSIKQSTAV
Outline: (§1)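 Peptides are tested on cells bearing CRF1R or CRF2R, full length or as ligand-binding-domain constructs coupled to reporters or G proteins. Activation is scored by cAMP rise, measured in lysates or by CRE-reporter output, against vehicle control.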

CRF2R = biological target: T2, CRF2R (Homo sapiens, UniProt Q13324); test: CRF2R agonist activation (EC50 / Emax), called comparative CRF binding; format: cell-based; details: for Emax: read-out: CRF2R Emax
T2 sequence (Q13324 1-411): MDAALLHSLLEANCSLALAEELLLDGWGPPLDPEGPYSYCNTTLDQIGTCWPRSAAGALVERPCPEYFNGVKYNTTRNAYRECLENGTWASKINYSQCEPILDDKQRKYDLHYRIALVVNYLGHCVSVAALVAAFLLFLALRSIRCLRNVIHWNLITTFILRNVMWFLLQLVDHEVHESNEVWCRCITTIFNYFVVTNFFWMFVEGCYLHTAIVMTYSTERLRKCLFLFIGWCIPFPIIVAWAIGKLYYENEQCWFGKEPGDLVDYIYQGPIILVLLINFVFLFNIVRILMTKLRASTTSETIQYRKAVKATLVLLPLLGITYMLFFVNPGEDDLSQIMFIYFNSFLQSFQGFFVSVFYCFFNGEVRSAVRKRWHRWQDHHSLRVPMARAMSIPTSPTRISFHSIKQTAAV
Outline: as §1

| SMILES | EC50 (CRF1R) | Emax (CRF1R) | EC50 (CRF2R) | Emax (CRF2R) |
| --- | --- | --- | --- | --- |
| CC[C@H](C)[C@H](NC(=O)[C@H](CCC(=O)O)NC(=O)[C@@H](NC(=O)[C@@H](NC(=O)[C@H](CCCCN)NC(=O)[C@H](CCCNC(=N)N)NC(=O)[C@H](CC(C)C)NC(=O)[C@H](CC(C)C)NC(=O)[C@H](CCC(N)=O)NC(=O)[C@H](Cc1ccccc1)NC(=O)[C@@H]1CCCN1C(=O)[C@H](CC(C)C)NC(=O)[C@H](CC(=O)O)NC(=O)[C@@H](NC(=O)[C@H](CO)NC(=O)[C@@H](NC(=O)[C@@H]1CCCN1C(=O)[C@@H]1CCCN1C(=O)CNC(=O)[C@@H]1CCC(=O)N1)[C@@H](C)CC)[C@@H](C)CC)C(C)C)[C@@H](C)CC)C(=O)N[C@@H](CCC(=O)O)C(=O)N[C@@H](CCCCN)C(=O)N[C@@H](CCC(N)=O)C(=O)N[C@@H](CCC(=O)O)C(=O)N[C@@H](CCCCN)C(=O)N[C@@H](CCC(=O)O)C(=O)N[C@@H](CCCCN)C(=O)N[C@@H](CCC(N)=O)C(=O)N[C@@H](CCC(N)=O)C(=O)N[C@@H](C)C(=O)N[C@H](C(=O)N[C@H](C(=O)N[C@@H](CC(N)=O)C(=O)N[C@@H](C)C(=O)N[C@@H](CCCNC(=N)N)C(=O)N[C@@H](CC(C)C)C(=O)N[C@@H](CC(C)C)C(=O)N[C@@H](CC(=O)O)C(=O)N[C@@H](CCCNC(=N)N)C(=O)N[C@H](C(N)=O)C(C)C)[C@@H](C)O)[C@@H](C)O [compound 351] | ≥ 1 µM | 85.7% | 0.0129 µM | 97.4% |
| CC[C@H](C)[C@H](NC(=O)[C@@H](NC(=O)[C@H](CC(=O)O)NC(=O)[C@H](CC(C)C)NC(=O)[C@H](CC(C)C)NC(=O)[C@H](CC(C)C)NC(=O)[C@H](CCCNC(=N)N)NC(=O)[C@H](CC(N)=O)NC(=O)[C@H](CC(N)=O)NC(=O)[C@H](C)NC(=O)[C@H](C)NC(=O)[C@H](CCC(N)=O)NC(=O)[C@H](CCC(N)=O)NC(=O)[C@H](CCCCN)NC(=O)[C@H](CCC(=O)O)NC(=O)[C@H](CCCCN)NC(=O)[C@H](CCC(=O)O)NC(=O)[C@H](CCC(N)=O)NC(=O)[C@H](CCCCN)NC(=O)[C@H](CCC(=O)O)NC(=O)[C@@H](NC(=O)[C@H](CCC(=O)O)NC(=O)[C@@H](NC(=O)[C@H](CCSC)NC(=O)[C@H](CCCCN)NC(=O)[C@H](CCCNC(=N)N)NC(=O)[C@H](CC(C)C)NC(=O)[C@H](CC(C)C)NC(=O)[C@H](Cc1ccc(O)cc1)NC(=O)[C@H](CC(=O)O)NC(=O)[C@@H]1CCCN1C(=O)[C@H](CC(C)C)NC(=O)[C@H](CC(=O)O)NC(=O)[C@@H](NC(=O)[C@H](CO)NC(=O)[C@@H](NC(=O)[C@@H]1CCCN1C(=O)[C@@H]1CCCN1C(=O)CNC(=O)[C@@H]1CCC(=O)N1)[C@@H](C)CC)[C@@H](C)CC)[C@@H](C)CC)[C@@H](C)CC)[C@@H](C)O)C(N)=O [compound 54] |  | 10% |  | 11% |
| CC[C@H](C)[C@H](NC(=O)[C@H](CCCNC(=N)N)NC(=O)[C@H](C)NC(=O)[C@H](CC(N)=O)NC(=O)[C@@H](NC(=O)[C@@H](NC(=O)[C@H](C)NC(=O)[C@H](CCC(N)=O)NC(=O)[C@H](CCC(N)=O)NC(=O)[C@H](CCCCN)NC(=O)[C@H](CCC(=O)O)NC(=O)[C@H](CCCCN)NC(=O)[C@H](CCC(=O)O)NC(=O)[C@H](CCC(N)=O)NC(=O)[C@H](CCCCN)NC(=O)[C@H](CCC(=O)O)NC(=O)[C@@H](NC(=O)[C@H](CCC(=O)O)NC(=O)[C@@H](NC(=O)[C@H](CCSC)NC(=O)[C@H](CCCCN)NC(=O)[C@H](CCCNC(=N)N)NC(=O)[C@H](CC(C)C)NC(=O)[C@H](CC(C)C)NC(=O)[C@H](CCC(N)=O)NC(=O)[C@H](Cc1ccccc1)NC(=O)[C@@H]1CCCN1C(=O)[C@H](CC(C)C)NC(=O)[C@H](CC(=O)O)NC(=O)[C@@H](NC(=O)[C@H](CO)NC(=O)[C@@H](NC(=O)[C@@H]1CCCN1C(=O)[C@@H]1CCCN1C(=O)CNC(=O)[C@@H]1CCC(=O)N1)[C@@H](C)CC)[C@@H](C)CC)[C@@H](C)CC)[C@@H](C)CC)[C@@H](C)O)[C@@H](C)O)C(=O)N[C@@H](CC(C)C)C(=O)N[C@@H](C)C(=O)N[C@@H](CCCNC(=N)N)C(=O)N[C@H](C(N)=O)C(C)C [compound 148] |  | 100% |  | 51.5% |
| CC[C@H](C)[C@H](NC(=O)[C@@H](NC(=O)[C@H](CC(=O)O)NC(=O)[C@H](CC(C)C)NC(=O)[C@H](CC(C)C)NC(=O)[C@H](CC(C)C)NC(=O)[C@H](CCCNC(=N)N)NC(=O)[C@H](CC(N)=O)NC(=O)[C@H](CC(N)=O)NC(=O)[C@H](C)NC(=O)[C@H](C)NC(=O)[C@H](CCC(N)=O)NC(=O)[C@H](CCC(N)=O)NC(=O)[C@H](CCCCN)NC(=O)[C@H](CCC(=O)O)NC(=O)[C@H](CCCCN)NC(=O)[C@H](CCC(=O)O)NC(=O)[C@H](CCC(N)=O)NC(=O)[C@H](CCCCN)NC(=O)[C@H](CCC(=O)O)NC(=O)[C@@H](NC(=O)[C@H](CCC(=O)O)NC(=O)[C@@H](NC(=O)[C@H](CCSC)NC(=O)[C@H](CCCCN)NC(=O)[C@H](CCCNC(=N)N)NC(=O)[C@H](CC(C)C)NC(=O)[C@H](CC(C)C)NC(=O)[C@@H](NC(=O)[C@@H](NC(=O)[C@@H]1CCCN1C(=O)[C@H](CC(C)C)NC(=O)[C@H](CC(=O)O)NC(=O)[C@@H](NC(=O)[C@H](CO)NC(=O)[C@@H](NC(=O)[C@@H]1CCCN1C(=O)[C@@H]1CCCN1C(=O)CNC(=O)[C@@H]1CCC(=O)N1)[C@@H](C)CC)[C@@H](C)CC)[C@@H](C)O)C(C)C)[C@@H](C)CC)[C@@H](C)CC)[C@@H](C)O)C(N)=O [compound 46] |  | 17% |  | 100% |
| CC[C@H](C)[C@H](NC(=O)[C@@H](NC(=O)[C@H](CC(=O)O)NC(=O)[C@H](CC(C)C)NC(=O)[C@H](CC(C)C)NC(=O)[C@H](CC(C)C)NC(=O)[C@H](CCCNC(=N)N)NC(=O)[C@H](CC(N)=O)NC(=O)[C@H](CC(N)=O)NC(=O)[C@H](C)NC(=O)[C@H](C)NC(=O)[C@H](CCC(N)=O)NC(=O)[C@H](CCC(N)=O)NC(=O)[C@H](CCCCN)NC(=O)[C@H](CCC(=O)O)NC(=O)[C@H](CCCCN)NC(=O)[C@H](CCC(=O)O)NC(=O)[C@H](CCC(N)=O)NC(=O)[C@H](CCCCN)NC(=O)[C@H](CCC(=O)O)NC(=O)[C@@H](NC(=O)[C@H](CCC(=O)O)NC(=O)[C@@H](NC(=O)[C@H](CCSC)NC(=O)[C@H](CCCCN)NC(=O)[C@H](CCCNC(=N)N)NC(=O)[C@H](CC(C)C)NC(=O)[C@H](CC(C)C)NC(=O)[C@H](CC(C)C)NC(=O)[C@H](Cc1ccc(O)cc1)NC(=O)[C@@H]1CCCN1C(=O)[C@H](CC(C)C)NC(=O)[C@H](CC(=O)O)NC(=O)[C@@H](NC(=O)[C@H](CO)NC(=O)[C@@H](NC(=O)[C@@H]1CCCN1C(=O)[C@@H]1CCCN1C(=O)CNC(=O)[C@@H]1CCC(=O)N1)[C@@H](C)CC)[C@@H](C)CC)[C@@H](C)CC)[C@@H](C)CC)[C@@H](C)O)C(N)=O [compound 203] | 0.0762 µM | 86% | 0.0052 µM | 94% |
